Measurements from patent US9884130B2, “Compositions for delivery of oral comfort sensations” (The Procter & Gamble Company, priority 2013, dated 2018).

By UniProt entry, the sequences of proteins in these tests, tags left out. Chains listed by the source or under a name are the forms on record and can include a tag or linker. Residues count along the entry.
UniProt P97438, 16-385 with tags or gaps limits assumed: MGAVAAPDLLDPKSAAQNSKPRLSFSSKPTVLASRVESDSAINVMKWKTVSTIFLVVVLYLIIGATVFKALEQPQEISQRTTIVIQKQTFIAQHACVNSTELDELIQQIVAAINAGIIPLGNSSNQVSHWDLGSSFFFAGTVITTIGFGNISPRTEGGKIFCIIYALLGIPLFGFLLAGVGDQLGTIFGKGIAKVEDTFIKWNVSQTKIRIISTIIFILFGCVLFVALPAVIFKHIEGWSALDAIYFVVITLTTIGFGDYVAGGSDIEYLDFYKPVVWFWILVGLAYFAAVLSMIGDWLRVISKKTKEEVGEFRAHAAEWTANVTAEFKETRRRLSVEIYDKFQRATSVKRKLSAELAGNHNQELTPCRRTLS

Target: mouse TREK-1 (mTREK-1t) (Mus musculus, UniProt P97438)
Assay: FLIPR membrane potential assay in HEK-293 cells stably transfected with mTREK-1t
Type: cell-based

CCCCOP(=O)(OCCCC)OCCCC
Activity Level (percentage of activity relative to 100% with 50 mM potassium nitrate) (Sample Conc. 0.0005%): 8.34%
Activity Level (percentage of activity relative to 100% with 50 mM potassium nitrate) (Sample Conc. 0.0010%): 8.75%
Activity Level (percentage of activity relative to 100% with 50 mM potassium nitrate) (Sample Conc. 0.0021%): 9.28%
Activity Level (percentage of activity relative to 100% with 50 mM potassium nitrate) (Sample Conc. 0.0042%): 9.41%
Activity Level (percentage of activity relative to 100% with 50 mM potassium nitrate) (Sample Conc. 0.0083%): 13.52%
Activity Level (percentage of activity relative to 100% with 50 mM potassium nitrate) (Sample Conc. 0.0167%): 30.74%
Activity Level (percentage of activity relative to 100% with 50 mM potassium nitrate) (Sample Conc. 0.0330%): 69%
